# Measurements: patent US8138145B2, “Hybrid oligomers, their preparation process and pharmaceutical compositions containing them” (Centre National de la Recherche Scientifique (SNRS), priority 2005, dated 2012)
# Key:
# [1] = system: Staphylococcus Aureus ATCC 25923; format: cell-based; conditions: Mueller-Hinton broth, 37° C., 18 to 20 hours
# Procedure: (§1) Four strains were selected: Escherichia Coli ATCC 25922, Staphylococcus Aureus ATCC 25923, Pseudomonas Aeruginosa ATCC 27853 and a clinical isolated methicillin resistant Staphylococcus Aureus strain. Antibacterial activity of the molecules was tested by dilution method in Mueller-Hinton broth in order to determine the minimal inhibitory concentration (MIC) and the minimal bactericidal concentration (MBC). At least two independent assays were done. Stock solutions were obtained by solubilizing molecule powders in distilled water at concentration of 2.56 mg/mL and serial 2-fold diluted solutions were prepared. Bacterial inoculum was standardized by using direct suspensions of colonies from overnight growth in saline adjusted to a turbidity matching the 0.5 McFarland standard, and diluted to obtain a density comprised between 10^5 CFU/mL and 10^7 CFU/mL. Tubes containing 900 μL of inoculum with 100 μL of molecules solutions were incubated in air at 37° C. for 18 to 20 hours. Purity and inoculum density as well as percentage of viable bacteria in limpid tubes were checked by plate counting on sheep blood agar. Broth not containing any molecule solution was inoculated with each selected bacterial strain as a control for organism viability (growth control). The susceptibility of S. Aureus strains against vancomycin was used as an internal control as well as the activity of melittin.
# [2] = system: Escherichia Coli ATCC 25922; format: cell-based; conditions: Mueller-Hinton broth, 37° C., 18 to 20 hours
# Procedure: as §1
compound,measurement,setting,value
"CC[C@H](C)[C@H](NC(=O)CN)C(=O)NCC(=O)N[C@@H](C)C(=O)N[C@H](C(=O)N[C@@H](CC(C)C)C(=O)N[C@@H](CCCCN)C(=O)N[C@H](C(=O)N[C@@H](CC(C)C)C(=O)N[C@H](C(=O)N[C@H](C(=O)NCC(=O)N[C@@H](CC(C)C)C(=O)N1CCC[C@H]1C(=O)N[C@@H](C)C(=O)N[C@@H](CC(C)C)C(=O)N[C@H](C(=O)N[C@@H](CO)C(=O)N[C@@H](Cc1c[nH]c2ccccc12)C(=O)N[C@H](C(=O)N[C@@H](CCCCN)C(=O)N[C@@H](CCCNC(=N)N)C(=O)N[C@@H](CCCCN)C(=O)N[C@@H](CCCNC(=N)N)C(=O)N[C@@H](CCC(N)=O)C(=O)N[C@@H](CCC(N)=O)C(N)=O)[C@@H](C)CC)[C@@H](C)CC)[C@@H](C)O)[C@@H](C)O)C(C)C)C(C)C [mellitin, reference compound]","Minimal inhibitory concentration, Staphylococcus Aureus ATCC",[1],32 µg/mL
same,"Minimal bactericidal concentration, Staphylococcus Aureus ATCC",[1]; plate counting on sheep blood agar,128 µg/mL
same,"Minimal inhibitory concentration, Escherichia Coli ATCC 25922",[2],>256 µg/mL
